According to PubChem BioAssay AID1898 (National Center for Advancing Translational Sciences (NCATS), 2009):
Several values for one entry are separate records, joined by “and”; a condition that tells them apart may be missing. Identical values can stand only once. Only a part is listed here, and it is no random draw. Inconclusive results are not listed. Activity calls are given as the source filed them. Calls follow the shape of the dose curve; as a rule, active = well fitted curve in the direction sought with a large enough effect; inconclusive = small, poorly fitted or top-dose-only effect, or another doubt; inactive = no such curve, though single readings can be large or run the other way.

assay: Secondary assay for Activators of Human Pyruvate Kinase M2 isoform - Cell Titer Glo cytotoxicity assay; conditions: HeLa viability, CellTiter-Glo ATP luminescence, 24 h; at 57.5 µM (top of the series); also: % of control where 0% means no effect
Protocol: NIH Chemical Genomics Center [NCGC] Matthew G. Vander Heiden, M.D., Ph.D. [Harvard Medical School, 77 Avenue Louis Pasteur, Boston, MA 02115] MLPCN Grant: 1 R03 MH085679-01 NCGC Assay Overview: We have identified a series of activators of the M2 isoform of human pyruvate kinase. The assay described here examines the cytotoxicity of these compounds by measuring the total ATP content of Hela cells after 24 hrs of exposure to compound.
Assay Protocol: 500 Hela cells/ 4ul in media (DMEM with high glucose, 10% FBS, 1x Pen Strep, 1x NEAA) were dispensed into a white solid 1536-microwell plate with a Thermo Multidrop. The plates were incubated at 37 degrees Celsius for 24 hours. The cells were then treated with compounds using the Kalypsys pin tool, delivering 23 nl of test compounds and the control doxorubicin. The plates were then incubated for an additional 24 hours at 37 degrees C after which 4 ul of Promega Cell-Titer Glo was dispensed using the Thermo Multidrop. The plates were incubated at room temperature for 10 min before reading luminescence on the Perkin Elmer ViewLux with images collected with 2x binning and a 5 sec exposure time.

| Compound | activity change, negative = cytotoxicity |
| --- | --- |
| Cc1cc2c(s1)c1cnn(Cc3ccccc3F)c(=O)c1n2C | inactive: -0.0153% and inactive: 8.38% and inactive: -24% |
